The values below are quoted from earlier work in patent US20250064807A1, “Promoting Hair Growth and Treatment of Hair Loss or Excessive Hair Shedding” (Samson Clinical Pty Ltd, priority 2017, published 2025).

Read-outs that look alike come from different tables or passages of the source.

The conditions of the data set: cited from earlier work.

Take `Nc1cc(N2CCCCC2)nc(N)[n+]1[O-]` [minoxidil, 2,4-Diamino-6-piperidinopyrimidine 3-oxide]: the “share of minoxidil absorbed topically (cutaneous absorption)” value is reported as 1-4% (in vivo) and 1.5-4% (topical application). Further, the “share of orally administered dose absorbed gastrointestinally” value (oral dose as approved by the TGA for severe refractory hypertension) is given as 95%.
